This test deals with Egl nine homolog 1 (Homo sapiens, UniProt Q9GZT9).

By UniProt entry, the sequences of proteins in these tests, tags left out. Where a name states a change or a piece, a line headed by the entry shows the natural chain unless it says otherwise.
UniProt Q9GZT9: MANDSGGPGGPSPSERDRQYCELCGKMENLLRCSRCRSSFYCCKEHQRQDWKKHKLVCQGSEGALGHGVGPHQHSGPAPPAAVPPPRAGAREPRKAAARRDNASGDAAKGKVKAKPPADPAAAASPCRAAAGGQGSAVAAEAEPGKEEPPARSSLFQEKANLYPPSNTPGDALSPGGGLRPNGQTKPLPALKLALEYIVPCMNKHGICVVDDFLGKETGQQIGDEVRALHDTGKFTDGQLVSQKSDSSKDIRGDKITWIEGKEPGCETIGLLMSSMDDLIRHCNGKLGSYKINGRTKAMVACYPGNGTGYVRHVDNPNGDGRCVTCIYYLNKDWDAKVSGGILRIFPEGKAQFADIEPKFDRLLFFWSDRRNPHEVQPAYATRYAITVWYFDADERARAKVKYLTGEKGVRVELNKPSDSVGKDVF

This passage reports IC50 results from ChEMBL document CHEMBL5226352, “Inhibition of AlkB Nucleic Acid Demethylases: Promising New Epigenetic Targets” (J Med Chem, 2021).

As for `O=C(O)CC[C@@H](O)C(=O)O`, the IC50 amounted to 7.3 mM.

In general, IC50 refers to the concentration that gives 50% inhibition.
